Earlier results as cited in patent US20260053800A1 (Veradermics, Incorporated, priority 2024, published 2026).

How the values were obtained:
[1] = test system: deoxyribonucleic acid (DNA); details: cited from earlier work
[2] = cited from earlier work

Compound: Nc1cc(N2CCCCC2)nc(N)[n+]1[O-] [minoxidil]
- mutagenicity [1]: not mutagenic
- dose dependence of PK ([2]; healthy volunteers, 2.5 mg, 5 mg, or 10 mg oral): dose-independent PK
- absorption from the gastrointestinal tract ([2]; human, in vivo, po): > 90%
- radiolabeled drug and metabolites recovered from urine ([2]; hypertensive patients, within 24 h after oral administration): Over 80%
